# Laboratory results taken from patent US20230390283A1, “USES OF CHK2 INHIBITORS” (The University of Birmingham, priority 2020, published 2023).
# Entries after “also recorded” stand apart in the source; their conditions may differ.
# How the values were obtained:
# [1] = test system: clip compression (CC) model of SCI; experiment: Clip compression model of severe SCI: BBB scores; format: in vivo, rat; details: all doses (2, 0.2, 0.02 μg), vs Vehicle or Chk1i
# [2] = test system: clip compression (CC) model of SCI; experiment: Clip compression model of severe SCI: horizontal ladder crossing test; format: in vivo, rat; details: all doses (2, 0.2, 0.02 μg), vs Vehicle or Chk1i
# Description: Horizontal ladder test: This tests the animals locomotor function and is performed on a 0.9-meter-long horizontal ladder with a diameter of 15.5 cm and randomly adjusted rungs with variable gaps of 3.5-5.0 cm. The total number of steps taken to cross the ladder and the left and right rear paw slips being were recorded and the mean error rate was then calculated by dividing the number of slips by the total number of steps taken.
smiles,measurement,setting,value
COc1cccc(OCCCN)c1-c1cc(Nc2cnc(C#N)cn2)n[nH]1 [Prexasertib],BBB scores,[1],improve significantly; also recorded: significant improvements
same,"horizontal ladder crossing, footslips",[2],significantly fewer footslips; also recorded: fewer hindlimbs footslips
